Measured values taken from US5001058A (Bristol-Myers Company, priority 1989, dated 1991).

System: B16 melanoma
Settings: for MST (median survival time) / T/C: Q4D × 3, ip; for T/C: T/C ≥ […] significant

## Cc1cc2c(c3oc(C(O)(CO)C4CO4)cc(=O)c13)C(=O)c1c(O)cccc1C2=O (stereo not shown) [BU-3839T]
0.5 mg/kg/day
  MST (median survival time): 11.0 days
  T/C: 81%
1.0 mg/kg/day
  MST (median survival time): 10.0 days
  T/C: 74%
2.0 mg/kg/day
  MST (median survival time): Tox
  T/C: Tox
In words, at the doses tested
  Antitumor activity against ip-B16 melanoma: minimum antitumor activity

Like-named read-outs stand apart in the source and are kept apart here.
